From PMC10900492, “Asymmetrical Biantennary Glycans Prepared by a Stop-and-Go Strategy Reveal Receptor Binding Evolution of Human Influenza A Viruses” (2024)

By UniProt entry, the sequences of proteins in these tests, tags left out. Residues count along the entry.
UniProt P15907, 27-406 limits assumed: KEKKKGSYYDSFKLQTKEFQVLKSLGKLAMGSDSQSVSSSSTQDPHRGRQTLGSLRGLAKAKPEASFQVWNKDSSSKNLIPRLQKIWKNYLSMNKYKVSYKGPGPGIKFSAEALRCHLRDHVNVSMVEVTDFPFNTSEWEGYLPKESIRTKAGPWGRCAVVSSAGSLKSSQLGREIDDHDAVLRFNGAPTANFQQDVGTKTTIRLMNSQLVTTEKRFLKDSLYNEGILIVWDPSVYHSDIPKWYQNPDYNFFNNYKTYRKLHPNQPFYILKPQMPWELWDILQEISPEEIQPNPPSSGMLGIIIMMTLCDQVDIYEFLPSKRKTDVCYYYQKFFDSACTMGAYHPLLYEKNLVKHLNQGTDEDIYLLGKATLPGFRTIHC
UniProt Q10469, 30-447 limits assumed: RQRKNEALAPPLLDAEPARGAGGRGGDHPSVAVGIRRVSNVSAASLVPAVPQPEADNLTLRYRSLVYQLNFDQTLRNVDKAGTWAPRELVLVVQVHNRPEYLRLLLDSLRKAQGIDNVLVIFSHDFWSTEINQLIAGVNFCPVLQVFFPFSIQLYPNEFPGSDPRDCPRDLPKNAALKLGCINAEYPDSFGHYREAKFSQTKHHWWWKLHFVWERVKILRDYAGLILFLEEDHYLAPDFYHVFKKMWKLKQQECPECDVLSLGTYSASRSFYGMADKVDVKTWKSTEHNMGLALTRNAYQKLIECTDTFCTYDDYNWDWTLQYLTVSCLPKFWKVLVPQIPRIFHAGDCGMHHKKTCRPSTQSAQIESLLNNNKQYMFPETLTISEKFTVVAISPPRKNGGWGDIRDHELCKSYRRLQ

How the values were obtained:
ST6Gal1 = ST6Gal1 (Homo sapiens, UniProt P15907); assay: preparative glycosyl transfer, LC-MS and NMR of product; conditions: acceptors 20-22, cacodylate pH 6.5, 37 °C
MGAT2 = MGAT2 (Homo sapiens, UniProt Q10469); assay: as above; conditions: HEPES pH 7.0, 37 °C

Structure (SMILES): CC(=O)N[C@H]1[C@H]([C@H](O)[C@H](O)CO)O[C@](OP(=O)(O)OC[C@H]2O[C@@H](n3ccc(N)nc3=O)[C@H](O)[C@@H]2O)(C(=O)O)C[C@@H]1O
- preparative glycosyl transfer, LC-MS and NMR of product (ST6Gal1): by ST6Gal1 in the presence of CMP-Neu5Ac

Structure (SMILES): O=C(N[C@H]1[C@@H](OP(=O)(O)OP(=O)(O)OC[C@H]2O[C@@H](n3ccc(=O)[nH]c3=O)[C@H](O)[C@@H]2O)O[C@H](CO)[C@@H](O)[C@@H]1O)C(F)(F)F
- preparative glycosyl transfer, LC-MS and NMR of product (MGAT2; acceptor glycan 10, MnCl2 2 mM): MGAT2 can utilize an unnatural donor such as UDP-GlcNTFA

Structure (SMILES): CC(=O)N[C@H]1[C@@H](OP(=O)(O)OP(=O)(O)OC[C@H]2O[C@@H](n3ccc(=O)[nH]c3=O)[C@H](O)[C@@H]2O)O[C@H](CO)[C@@H](O)[C@@H]1O
- preparative glycosyl transfer, LC-MS and NMR of product (MGAT2; acceptor glycan 13, MnCl2 2 mM): further modified by MGAT2 in the presence of UDP-GlcNTFA or UDP-GlcNAc
